Assay results taken from US5574013A (Warner-Lambert Company, priority 1993, dated 1996).
pKi: −log10 of the molar value.

Target: T1, CCK B (Mus musculus, UniProt P56481)
T1 construct: from tissue; host or cells: cerebral cortex membranes of male CFLP mice
T1 sequence (P56481 1-453): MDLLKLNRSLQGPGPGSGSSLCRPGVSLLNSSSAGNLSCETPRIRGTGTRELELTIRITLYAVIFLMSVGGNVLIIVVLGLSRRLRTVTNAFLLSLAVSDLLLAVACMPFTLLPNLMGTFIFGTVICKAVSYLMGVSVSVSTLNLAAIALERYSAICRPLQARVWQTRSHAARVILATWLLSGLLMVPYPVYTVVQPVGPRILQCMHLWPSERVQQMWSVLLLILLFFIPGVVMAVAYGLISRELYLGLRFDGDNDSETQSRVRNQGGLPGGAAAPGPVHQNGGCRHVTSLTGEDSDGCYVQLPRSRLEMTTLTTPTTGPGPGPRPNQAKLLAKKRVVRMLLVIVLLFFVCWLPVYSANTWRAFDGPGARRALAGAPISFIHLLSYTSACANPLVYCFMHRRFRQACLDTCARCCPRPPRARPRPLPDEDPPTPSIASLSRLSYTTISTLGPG
Experiment: CCK receptor binding screening test, displacement of tritiated-pentagastrin from mouse cerebral cortical membranes
Conditions: Ki by Cheng-Prusoff; 2 nM tritiated-pentagastrin; mouse cerebral cortex membranes; read-out: Binding Affinity CCK B
Method: The biological activity of compounds of the present invention was evaluated employing an initial screening test which rapidly and accurately measured the binding of the tested compound to known CCK receptor sites. […] (See Hays et al, Neuropeptides 1:53-62, 1980; and Satuer et al, Science 208:1155-1156, 1980.
In this screening test, the cerebral cortices taken from male CFLP mice weighing between 30-40 g were dissected on ice, weighed, and homogenized in 10 volumes of 50 mM Tris-HCl buffer (pH 7.4 at 0°-4° C.). The resulting suspension was centrifuged, the supernate was discarded, and the pellet was washed by resuspension in Tris-HCl buffer followed by recentrifugation. […]
Following incubation, radioactivity bound to membranes was separated from that free in solution by rapid filtration through Whatman GF/B filters and washed three times with 4 mL of ice cold Tris-HCl buffer. Filters from samples incubated with tritiated-pentagastrin were placed in polyethylene vials with 4 mL of scintillation cocktail, and the radioactivity was estimated by liquid scintillation spectrometry (efficiency 47-52%). […]
In displacement experiments, inhibition curves were analyzed by either logit-log plots or the iterative curve fitting computer program ALLFIT (DeLean, Munson and Redbard, 1978) to provide estimates of the IC50 and nH (apparent Hill coefficient) values). […]

In the case of “Methyl N-[α-methyl-N-[(tricyclo[3.3.1.1^3,7 ]dec-2-yloxy)carbonyl]]-D-tryptophyl]-β-methionine [Example 10]”, the pKi was 7.39.
